Assay results from patent publication US8871751B2, “Compositions and methods relating to nuclear hormone and steroid hormone receptors including inhibitors of estrogen receptor alpha-mediated gene expression and inhibition of breast cancer” (The Board of Trustees of the University of Illinois, priority 2008, dated 2014).

Chains of the proteins cited; added tags and fusions are not shown.
UniProt P03372, whole entry: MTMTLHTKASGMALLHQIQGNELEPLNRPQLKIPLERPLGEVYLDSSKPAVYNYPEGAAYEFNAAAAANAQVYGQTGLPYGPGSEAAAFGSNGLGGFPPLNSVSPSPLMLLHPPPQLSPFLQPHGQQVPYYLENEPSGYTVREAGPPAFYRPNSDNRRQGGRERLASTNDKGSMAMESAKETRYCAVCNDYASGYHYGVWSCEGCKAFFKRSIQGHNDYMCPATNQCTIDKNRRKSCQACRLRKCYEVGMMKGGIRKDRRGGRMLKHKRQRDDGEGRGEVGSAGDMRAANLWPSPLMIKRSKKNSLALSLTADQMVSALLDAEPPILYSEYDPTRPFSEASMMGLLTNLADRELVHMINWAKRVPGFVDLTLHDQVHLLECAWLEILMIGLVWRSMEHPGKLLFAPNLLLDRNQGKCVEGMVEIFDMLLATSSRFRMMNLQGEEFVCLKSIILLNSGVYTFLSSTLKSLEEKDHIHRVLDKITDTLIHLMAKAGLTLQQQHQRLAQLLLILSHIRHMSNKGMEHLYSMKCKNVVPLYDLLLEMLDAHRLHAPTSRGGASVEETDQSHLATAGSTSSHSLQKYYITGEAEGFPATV

Target: ERα (Homo sapiens, UniProt P03372)
Assay: (ERE)3-luciferase reporter gene assay in T47D-KBluc cells
Type: cell-based
Set-up: Using a stably transfected breast cancer cell line that expresses endogenous ERα; endogenous in cells; host or cells: T47D-KBluc
Conditions: 100 fold molar excess, 20 pM E2, 24 h
Description: The T47D-KBluc cells stably express an (ERE)3-luciferase reporter gene (38). […] Four days before E2 induction, the cells were switched to the above medium, with 10% 2× charcoal-dextran-treated calf serum instead of FBS. 200,000 cells/well were transferred to each well of a 24-well plate. After 24 h the indicated concentrations of the test compounds were added in DMSO and E2 was added to 20 pM. After 24 h cells were washed once in PBS, and 150 μl 1× Passive Lysis Buffer (Promega, Madison Wis.) was used to lyse the cells. Luciferase activity was determined using firefly luciferase reagents from Promega (Madison, Wis.).
Reporter Gene Assays. […] AR was assayed in stably transfected HeLa cells and GR was assayed in stably transfected T47D cells maintained as described above. Four days before each experiment the cells were switched to medium containing CD-treated serum as described above. The HeLaAR cells were plated at 100,000 cells/well and the T47D/A1-2 and T47D-KBluc cells were plated at 200,000 cells/well in 1 ml of their respective media in 24-well plates. After 24 hours the indicated concentrations of E2, dihydrotestosterone (DHT) or dexamethasone (Dex) and DMSO vehicle, with or without TPSF, were added to each well. […] Luciferase activity was determined using BrightGlo firefly luciferase reagent from Promega (Madison, Wis.).

effect on E2 activation of the (ERE)3-luciferase reporter gene: blocked activation
Substance: Fulvestrant [ICI 182,780/Faslodex/Fulvestrant, reference compound]
